The results in this text go back to patent US20170334865A1, “DDR2 INHIBITORS AND METHODS OF USING” (WASHINGTON UNIVERSITY, priority 2014, published 2017).

The chains behind the UniProt entries cited, without tags or fusion partners. Residues count along the entry.
UniProt Q16832, 22-399 limits assumed: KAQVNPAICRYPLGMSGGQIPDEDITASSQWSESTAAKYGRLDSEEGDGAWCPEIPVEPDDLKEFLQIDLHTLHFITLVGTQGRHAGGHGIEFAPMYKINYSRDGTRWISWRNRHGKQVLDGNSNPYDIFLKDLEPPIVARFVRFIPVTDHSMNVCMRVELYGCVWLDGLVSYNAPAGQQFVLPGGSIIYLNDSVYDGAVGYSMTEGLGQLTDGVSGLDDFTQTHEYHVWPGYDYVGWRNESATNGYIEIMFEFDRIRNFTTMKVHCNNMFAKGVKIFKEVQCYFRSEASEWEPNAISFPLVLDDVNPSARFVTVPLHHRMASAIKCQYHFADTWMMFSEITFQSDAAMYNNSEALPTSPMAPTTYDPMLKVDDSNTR
UniProt Q16832, 22-855 limits assumed: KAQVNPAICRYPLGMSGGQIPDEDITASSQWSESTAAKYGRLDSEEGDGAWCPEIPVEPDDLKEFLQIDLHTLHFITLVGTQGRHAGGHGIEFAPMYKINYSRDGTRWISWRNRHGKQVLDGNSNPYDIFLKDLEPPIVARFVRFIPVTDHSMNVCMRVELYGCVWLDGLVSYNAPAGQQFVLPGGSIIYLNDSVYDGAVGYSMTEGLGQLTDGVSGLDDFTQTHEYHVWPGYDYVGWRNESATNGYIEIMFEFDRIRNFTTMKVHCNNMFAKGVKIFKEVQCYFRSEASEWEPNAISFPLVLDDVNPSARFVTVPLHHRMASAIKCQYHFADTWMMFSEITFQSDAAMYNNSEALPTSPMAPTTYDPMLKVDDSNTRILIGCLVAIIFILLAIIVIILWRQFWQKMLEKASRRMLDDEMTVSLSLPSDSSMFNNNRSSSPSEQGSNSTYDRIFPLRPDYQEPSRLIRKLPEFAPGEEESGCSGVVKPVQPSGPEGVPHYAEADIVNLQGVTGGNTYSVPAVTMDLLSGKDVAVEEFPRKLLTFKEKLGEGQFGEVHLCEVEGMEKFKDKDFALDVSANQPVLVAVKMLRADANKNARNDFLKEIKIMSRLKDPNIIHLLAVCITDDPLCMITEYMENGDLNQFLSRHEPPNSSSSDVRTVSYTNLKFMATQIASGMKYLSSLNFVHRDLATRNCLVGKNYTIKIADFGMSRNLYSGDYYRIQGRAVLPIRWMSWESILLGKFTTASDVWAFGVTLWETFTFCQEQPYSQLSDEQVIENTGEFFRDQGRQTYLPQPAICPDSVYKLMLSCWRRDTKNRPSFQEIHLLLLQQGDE

In data set [1] the target is DDR2 extracellular domain (ECD) (Homo sapiens, UniProt Q16832). Kind of data set: in vitro ELISA-type assay, binding of soluble DDR2 ECD to immobilized collagen triple helical peptide. The note with it: for IC50: read-out: IC50, Inhibition of DDR2-collagen binding activity, values in nM.
For data set [2], the target named is DDR2 (Homo sapiens, UniProt Q16832). The data set is described as follows: DDR2 phosphorylation in DDR2 expressing HEK293 cells on collagen I, Western blot. The note with it: 8 h, increasing amounts, FIG. 2A.
Data set [3] concerns BT549 human metastatic breast cancer cells. Kind of data set: migration through 3D collagen I matrix. The note with it: 1 μM, over three days; FIG. 2E.
Data set [4] concerns Cells that do not express DDR2. The data set is described as follows: growth inhibition and toxicity in cells that do not express DDR2. The note with it: several concentrations. In kind it is cell-based.
Data set [5] relates to DDR2 signaling. The data set is described as follows: Western blot analysis of DDR2 downstream signaling in HEK293 cells expressing DDR2. The note with it: 1 μM, 6 hours, collagen I-coated plates; FIG. 3A, 3B.
Data set [6] concerns 4T1-Snail-CBG tumors. Kind of data set: 4T1-Snail-CBG breast tumor bioluminescence imaging in mice. The format is in vivo, BALB/cJ mice. The following applies: 10 mg/kg via tail vein injection, at 4 hours; FIG. 4A.
For data set [7], the system named is 4T1-GFP-luc expressing cells. The data set is described as follows: lung metastasis after tail vein injection of 4T1-GFP-luc cells.

Take `CCNS(=O)(=O)c1ccc(COc2ccc3nc4ccc(=O)cc-4oc3c2)cc1`: the “DDR2-collagen binding activity (absorbance at 490 nm)” value in data set [1] (250 nM, 500 nM, or 2 μM test compound vs DMSO, effect even at lowest dose 250 nM, FIG. 1A, 1B) is recorded as “decreased”. For the same molecule, in data set [1] (increasing substrate concentration), the “manner of inhibition of DDR2 binding to collagen” value is given as “non-competitive”. The IC50 in data set [1] was determined as 230 nM. The “activation (phosphorylation) of DDR2, pY-DDR2 relative to total DDR2” value in data set [2] was “inhibited activation”. The “distance of cell migration through 3D collagen I matrix relative to control” value in data set [3] was “impairs”. Also, in data set [4], the “cell growth inhibition or cell toxicity” value is on record as “no cell growth inhibition or cell toxicity was observed”. Also, in data set [5], the “downstream signaling: levels of phospho-ERK1/2, phospho-SRC, and SNAIL1” value is given as “reduced levels”. In addition, the “Snail-CBG bioluminescence signal (Snail stability)” value in data set [6] was “decreased”. The “tumor area per lung area” value in data set [7] (FIG. 5A) is recorded as “reduced”. The whole mouse bioluminescence result in data set [7] (imaging at days 1 and 7, FIG. 5B, 5C) is “reduced”.

Consider `COC(=O)c1ccc(COc2ccc3nc4ccc(=O)cc-4oc3c2)cc1`, for which, in data set [1], the IC50 worked out at 347 nM.
